# Measurements reported in patent US8389532B2, “7-[2-[4-(6-fluoro-3-methyl-1,2-benzisoxazol-5-yl)-1-piperazinyl]ethyl]-2-(1-propynyl)-7H-pyrazolo-[4,3-E]-[1,2,4]-triazolo-[1,5-C]-pyrimidin-5-amine” (Merck Sharp & Dohme Corp., priority 2005, dated 2013).
# Test system: 6-OHDA lesioned rats
# Experiment: 6-OHDA lesion of the middle forebrain bundle in rats (contralateral turning with subthreshold L-DOPA)
# Format: in vivo, rat
# Conditions: sub-threshold L-DOPA alone (4 mpk ip plus benserazide 4 mpk ip)
# Experimental: 6-OHDA Lesion of the Middle Forebrain Bundle in Rats
# Adult male Sprague-Dowley rats (Charles River, Calco, Como, Italy), weighing 275-300 g, are used in all experiments. The rats are housed in groups of 4 per cage, with free access to food and water, under controlled temperature and 12 hour light/dark cycle. The day before the surgery the rats are fasted over night with water ad libitum.
# Unilateral 6-hydroxydopamine (6-OHDA) lesion of the middle forebrain bundle is performed according to the method described by Ungerstedt et al. (Brain Research, 1971, 6-OHDA and Cathecolamine Neurons, North Holland, Amsterdam, 101-127), with minor changes. Briefly, the animals are anaesthetized with chloral hydrate (400 mg/kg, ip) and treated with desipramine (10 mpk, ip) 30 min prior to 6-OHDA injection in order to block the uptake of the toxin by the noradrenergic terminals. Then, the animals are placed in a stereotaxic frame. […]
# Two weeks after the lesion the rats are administered with L-DOPA (50 mg/kg, ip) plus Benserazide (25 mg/kg, ip) and selected on the basis of the number of full contralateral turns quantified in the 2 h testing period by automated rotameters (priming test). […]
smiles,measurement,value
"N[C@@H](Cc1ccc(O)c(O)c1)C(=O)O [L-DOPA, reference compound]",contralateral turning,171±47 rotations
